Values of other authors as cited in patent publication US7297551B2, “Recombinant proteins and peptides for endotoxin biosensors, endotoxin removal, and anti-microbial and anti-endotoxin therapeutics” (priority 1998, dated 2007).

Tests used:
cell lysis = conditions: reference 29; cited from earlier work
THP-1 monocytes = conditions: reference 29; cited from earlier work

Substance | concentration at which 50% cell lysis occurred (cell lysis) [µg/mL] | concentration at which 50% cell lysis occurred (THP-1 monocytes) [µg/mL]
polymixin B | 510 | –
Polymixin B | – | 510
